This data set concerns the target hERG channel (Homo sapiens, UniProt Q12809). As to the kind of experiment: in vitro. Particulars: Average inhibition rate (%) on hERG channel, 100 nM. The source says: In cardiomyocytes, inhibition of the delayed rectifier potassium current (IKr) channel protein encoded by the human Ether-a-go-go Related Gene (hERG) is the most important mechanism by which drugs lead to prolongation of the QT interval. hERG is characterized by a specific molecular structure, which allows it to be inhibited by different structures, leading to severe arrhythmias. Statistically, 25-40% of lead compounds show varying degrees of hERG-related toxicity. Therefore, early evaluation of the effects of compounds on hERG is crucial in the drug development process.
The inhibition rate of compounds on hERG channels was examined by manual membrane clamp technique on HEK293 cell line which is stably expressing hERG ion channels.
Background: The hERG channel carries a current that helps repolarise heart muscle cells.

Protein sequences, listed by entry. Tags and fused reporters are not part of them. Lines headed by an entry give the natural chain unless they say otherwise; changes in a name come on top.
UniProt Q12809: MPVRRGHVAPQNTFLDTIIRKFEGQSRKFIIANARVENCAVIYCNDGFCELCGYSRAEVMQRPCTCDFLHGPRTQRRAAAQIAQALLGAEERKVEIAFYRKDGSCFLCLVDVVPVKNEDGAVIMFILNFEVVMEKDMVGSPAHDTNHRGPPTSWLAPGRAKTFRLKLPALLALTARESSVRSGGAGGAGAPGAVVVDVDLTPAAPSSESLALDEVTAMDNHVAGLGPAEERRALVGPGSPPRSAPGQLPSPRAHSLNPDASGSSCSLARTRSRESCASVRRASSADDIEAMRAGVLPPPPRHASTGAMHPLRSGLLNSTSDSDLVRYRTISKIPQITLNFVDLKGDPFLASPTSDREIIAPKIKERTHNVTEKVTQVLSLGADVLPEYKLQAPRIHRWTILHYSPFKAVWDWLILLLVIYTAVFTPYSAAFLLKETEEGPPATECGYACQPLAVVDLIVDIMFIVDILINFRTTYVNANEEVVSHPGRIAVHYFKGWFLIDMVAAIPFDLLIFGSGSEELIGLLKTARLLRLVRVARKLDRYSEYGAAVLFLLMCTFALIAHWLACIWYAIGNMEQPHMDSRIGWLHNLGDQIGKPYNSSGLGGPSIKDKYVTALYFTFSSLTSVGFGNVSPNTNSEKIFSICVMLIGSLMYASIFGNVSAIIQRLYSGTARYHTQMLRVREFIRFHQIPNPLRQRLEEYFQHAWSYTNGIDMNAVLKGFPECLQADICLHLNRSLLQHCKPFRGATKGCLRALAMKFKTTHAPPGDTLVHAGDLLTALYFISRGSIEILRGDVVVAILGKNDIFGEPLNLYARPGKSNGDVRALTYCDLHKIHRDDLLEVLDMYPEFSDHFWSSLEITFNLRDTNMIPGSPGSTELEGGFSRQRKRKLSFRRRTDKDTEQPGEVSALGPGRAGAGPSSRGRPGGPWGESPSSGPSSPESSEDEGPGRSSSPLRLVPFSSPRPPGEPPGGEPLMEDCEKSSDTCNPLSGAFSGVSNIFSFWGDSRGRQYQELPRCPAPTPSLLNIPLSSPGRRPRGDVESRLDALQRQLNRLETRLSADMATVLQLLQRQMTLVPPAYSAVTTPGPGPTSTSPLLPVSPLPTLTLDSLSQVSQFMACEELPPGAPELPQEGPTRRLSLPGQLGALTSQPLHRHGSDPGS

Compound `COc1cc(N)c(Cl)cc1C(=O)NC1CCN(CCCOc2ccc(F)cc2)CC1OC` (stereo not shown) [Cisapride, reference compound] showed an inhibition at 0.1 µM of 86.6%.

The term inhibition denotes how much of the control response was suppressed.

For the origin of these results see US20250179040A1, “HISTAMINE H3 RECEPTOR ANTAGONISTS AND THEIR PHARMACEUTICAL USES” (HANGZHOU BIO-SINCERITY PHARMA-TECH CO., LTD., priority 2022, published 2025).
